These are literature values, as cited in patent US20230270982A1, “DEVICES FOR REGIO-SPECIFIC RELEASE OF CARRIED DRUG AT ILEOCECAL REGION” (Teva Pharmaceutical Industries Ltd., priority 2020, published 2023).

The conditions of this data set: standard oral dosage form targeted to the upper GI tract.

Turning to esterified levodopa [eLD], the “improvement in systemic exposure compared to LD” value is given as “no significant improvement”.
